Screening results deposited in PubChem by Broad Institute.
Shown are actives, neighbours in structure and some others; about 2.8% of the full set was active somewhere.
MITF act – activators of MITF-driven TRPM1 promoter reporter, primary screen, cell-based, SK-MEL-5, luciferase, single point; SK-MEL-5 TRPM1-promoter luciferase, 24 h; % of positive control, neutral wells = 0; activation, % at 12.5 µM; actives 0.75% (n = 300,000); AID 588334, 2011;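 active means mean activation of at least 80% with every replicate also reaching 80%; inconclusive means mean reaches 80% but some replicate falls short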;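 further: 0% = neutral control wells and 100% = parthenolide positive control wells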
miR122 inh – miR-122 Renilla sensor signal increase in Huh7, primary screen, miR-122 inhibitor project, cell-based, single point, plate reader | Huh7 miR-122 Renilla luciferase sensor, 48 h; neutral wells = 0, positive control = 100 | activation (reporter increase), % at 12.5 µM | actives 0.3% (n = 340,000) | AID 602342, 2012;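 active means mean replicate activation score at least 90 and every replicate individually at or above 90; inconclusive means only one of the two criteria met; inactive means neither criterion met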;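 further: higher luciferase means less miR-122 activity so hits act as miR-122 inhibitors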
esBAF inh – Bmi1 luciferase reporter increase in mESCs, primary screen, esBAF inhibitor project, mouse ES cells, Bmi1 luciferase knock-in, single point; 24 h; 100% = twice the neutral-well signal; reporter increase, % at 12.5 µM; actives 2% (n = 350,000); AID 602393, 2012; in the data active means activation above about 40%; inconclusive means no clear call, values can overlap the other calls;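 further: 0% = median of the plate's neutral control wells and 100% = double that signal; a rise in the Bmi1 reporter signal indicates esBAF inhibition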
Wnt act – Wnt/beta-catenin pathway activators, primary screen, cell-based, plate reader, single point; Wnt/beta-catenin reporter cell assay, activator; activation, % at 9.35 µM; actives 1.2% (n = 300,000); in the data active means activation above about 30%, passing the limit was not always enough; inconclusive means no clear call, values can overlap the other calls;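 further: 0% = neutral control wells and 100% = positive control wells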
PglD inh – C. jejuni PglD acetyltransferase inhibitors, primary screen, biochemical, DTNB colorimetric, single point; UDP-N-acetylbacillosamine N-acetyltransferase PglD (Campylobacter jejuni); purified PglD enzyme, DTNB colorimetric CoA detection; inhibition, % at 12.5 µM; actives 0.098% (n = 360,000); in the data active means inhibition above about 16%, passing the limit was not always enough; inconclusive means no clear call, values can overlap the other calls
Yeast UUG start – modulators of yeast start codon fidelity, primary screen, whole organism, S. cerevisiae, single point, plate reader. S. cerevisiae UUG-firefly luciferase reporter, luminescence/redox ratio. activity score, % at 18.7 µM. 350,000 tested, 0.13% active;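 active = replicate mean at a twofold rise or more, about +100% in these data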;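 also: firefly luciferase made from a UUG start codon reports start codon fidelity; reporter light over untreated wells divided by growth signal over untreated wells; some hits fall short of that in this replicate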
Active calls of the source: *; ? = inconclusive; nt = not tested or not shown; [ ] = another dose, or the depositor's remark.

Results follow in this order: MITF act	miR122 inh	esBAF inh	Wnt act	PglD inh	Yeast UUG start
> COc1ccc(/C=C/c2nnc(NC(=O)CSc3ccc(C)cc3)s2)cc1
→ 13	4	24	27	1	-2
> CCC(=O)Nc1nc2ccc3nc(C)sc3c2s1
→ 44	-6	46*	22	1	-12
> COc1ccc2sc(NC(=O)NC(=O)c3c(Cl)cccc3Cl)nc2c1
→ nt	nt	nt	2	nt	nt
> CCC(=O)Nc1nc2cc(OC)ccc2s1
→ nt	4	17	59*	nt	-18
> CCC(=O)Nc1nc2c(OC)ccc(OC)c2s1
→ -10	1	-4	7	5	-15
> CCC(=O)Nc1nnc(/C=C/c2ccc(OC)cc2)s1
→ nt	nt	nt	34*	nt	nt
> COc1ccc2sc(NC(C)=O)nc2c1
→ 54	-2	27	48*	-5	-13
> COc1ccc2sc(NC(=O)CC(C)C)nc2c1
→ ?	-3	40	57*	6	-14
> COc1ccc2sc(NCc3ccccc3)nc2c1
→ 111*	9	99*	33*	-4	-5
> C/C=C/c1ccc2c(c1)O[C@@H](CN(C)CC1CCCCC1)[C@@H](C)CN([C@@H](C)CO)S2(=O)=O
→ nt	11[16.7 µM]	-7	nt	0	0
> O=C(C1CCCC1)N1[C@@H](CO)[C@@H]2c3ccccc3NC[C@@H]21
→ nt	0[16.7 µM]	-6	nt	-1	-1
> CCOC(=O)c1nnn(CC(=O)NC(=O)Nc2cccc(CC)c2)c1C(=O)OCC
→ 4	-1	-8	36*	nt	nt
> CO[C@H]1CN(C)C(=O)c2cc(NS(C)(=O)=O)ccc2OC[C@@H](C)N(C(=O)CC2CC2)C[C@@H]1C
→ nt	nt	2	nt	-4	-9
> Clc1cccc(CNc2ccn3nc(-c4ccc(OCc5ccccc5)cc4)cc3n2)c1
→ nt	nt	17	1	-1	-24
> Clc1cccc(CNc2ccn3nc(-c4cccc(Cl)c4)cc3n2)c1
→ nt	0	58*	-3	0	-15
> Clc1cccc(CNc2ccn3nc(-c4ccccc4)cc3n2)c1
→ nt	-6	50*	5	6	-21
> Clc1ccccc1-c1cc2nc(NCc3ccco3)ccn2n1
→ nt	-3	72*	3	4	-41
> Clc1cccc(-c2cc3nc(NCCOc4ccccc4)ccn3n2)c1
→ nt	-4	57*	11	0	-7
> CC(C)C#Cc1cnc2c(c1)C(=O)N([C@@H](C)CO)C[C@@H](C)[C@H](CN(C)C(=O)c1ccccn1)O2
→ nt	-10[16.7 µM]	3	nt	2	12
> CC(C)NC(=O)Nc1ccc2c(c1)C(=O)N([C@H](C)CO)C[C@@H](C)[C@H](CN(C)S(=O)(=O)c1cccs1)OCCCC[C@H](C)O2
→ nt	6[16.7 µM]	-2	nt	5	2
> COCCN(C[C@H]1[C@H](c2ccccc2)[C@H](CO)N1C(C)=O)C(=O)c1cccnc1
→ nt	42[16.7 µM]	-1	nt	1	3
> CC(C)CC#Cc1cnc2c(c1)C(=O)N([C@@H](C)CO)C[C@@H](C)[C@@H](CN(C)C(=O)CCN1CCCCC1)O2
→ nt	1[16.7 µM]	-6	nt	-2	-6
> c1ccc(COc2ccc(-c3cc4nc(NCCN5CCOCC5)ccn4n3)cc2)cc1
→ nt	7	49*	-3	-11	-20
> Clc1ccc(-c2cc3nc(NCc4cccc(Cl)c4)ccn3n2)cc1
→ nt	0	76*	6	4	2
> c1ccc(COc2cccc(-c3cc4nc(NCCN5CCOCC5)ccn4n3)c2)cc1
→ nt	nt	2	0	10	-17
> CC(C)Cc1ccc(-c2cc3nc(NCCOc4ccccc4)ccn3n2)cc1
→ nt	4	58*	0	1	-10
> CC(C)NC(=O)Nc1ccc2c(c1)C(=O)N([C@H](C)CO)C[C@H](C)[C@H](CN(C)Cc1ccc3c(c1)OCO3)OCCCC[C@@H](C)O2
→ nt	-1[16.7 µM]	0	nt	3	-10
> CCCNC(=O)C[C@@H]1CC[C@@H]2[C@H](COC[C@@H](O)CN2C(=O)CC)O1
→ nt	0[16.7 µM]	-8	nt	5	nt
> CS(=O)(=O)c1ccc2nc(NC(=O)c3ccco3)sc2c1
→ 22	-1	-6	17	1	-26
> CCOC(=O)c1ccc2nc(NC(=O)c3ccco3)sc2c1
→ 27	7	-35	74*	4	-11

In another format: results already given
Clc1cccc(CNc2ccn3nc(-c4ccc(OCc5ccccc5)cc4)cc3n2)c1
  MITF act: nt | miR122 inh: nt | esBAF inh: 17 | Wnt act: 1 | PglD inh: -1 | Yeast UUG start: -24

Clc1cccc(CNc2ccn3nc(-c4cccc(Cl)c4)cc3n2)c1
  MITF act: nt | miR122 inh: 0 | esBAF inh: 58* | Wnt act: -3 | PglD inh: 0 | Yeast UUG start: -15

Clc1cccc(CNc2ccn3nc(-c4ccccc4)cc3n2)c1
  MITF act: nt | miR122 inh: -6 | esBAF inh: 50* | Wnt act: 5 | PglD inh: 6 | Yeast UUG start: -21

Following part.
Results follow in this order: MITF act	miR122 inh	esBAF inh	Wnt act	PglD inh	Yeast UUG start
> CCCC(=O)Nc1nc2ccc(C(=O)OCC)cc2s1
→ 92*	-13	65*	20	3	-11
> CCOc1ccc2nc(NC(=O)c3ccco3)sc2c1
→ 5	-3	-36	14	2	-50
> Cc1c(Cl)ccc2sc(NC(=O)c3ccco3)nc12
→ nt	nt	64*	?	2	-25
> COc1ccc(-c2nc(NC(=O)c3ccco3)sc2C)cc1
→ nt	-1	65*	16	2	-15
> COc1ccc(Cc2nnc(NC(=O)c3ccco3)s2)cc1
→ nt	-1	24	7	-3	-11
> CCCc1cc(C(=O)Nc2nnc(C)s2)cs1
→ 85*	-3	50*	29	-1	-10
> CCOc1cc(C(=O)Nc2nnc(C)s2)cc(OCC)c1OCC
→ nt	nt	8	1	-4	24
> CCCc1cc(C(=O)N/N=C/c2cccn2C)cs1
→ 71	5	54*	16	6	-19
> Cc1nnc(NC(=O)c2ccc3ccccc3c2)s1
→ 92*	-3	nt	40*	-4	-19
> Cc1ccc(C(=O)Nc2nnc(C)s2)cc1
→ 56	-3	nt	20	-2	-23
> CC(C)c1nnc(NC(=O)c2ccc3ccccc3c2)s1
→ 54	-5	6	29	4	-17
> Cc1nnc(NC(=O)c2ccc(Br)cc2)s1
→ 94*	4	22	9	-1	-18
> Cc1nnc(NC(=O)c2ccc(S(=O)(=O)N3CCCCC3)cc2)s1
→ 1	nt	3	63*	-5	-25
> O=C(O)c1cccc(N/N=C/c2sc(N3CCOCC3)nc2-c2ccccc2)c1
→ 39	2	48*	nt	nt	15
> COc1ccc(/C=N/Nc2nncc3ccccc23)cc1
→ 1	-1	-37	nt	-14	-27
> COc1ccc(/C(C)=N/Nc2nncc3ccccc23)cc1
→ 109*	nt	-3	37*	-3	-20
> C[C@@H](NC(=O)C[C@H]1C[C@H]2c3cc(NC(=O)NC4CCCC4)ccc3O[C@H]2[C@H](CO)O1)c1ccccc1
→ nt	-1[16.7 µM]	-3	nt	2	-13
> C[C@@H]1CCCCO[C@@H](CN(C)C(=O)c2ccncc2)[C@H](C)CN([C@@H](C)CO)C(=O)c2cc(NS(=O)(=O)c3ccc(F)cc3)ccc2O1
→ nt	-4[16.7 µM]	10	nt	2	-1
> COc1ccc(NC(=O)c2ccc(-c3ccc(C)c4ccccc34)o2)cc1
→ 9	nt	10	11	-2	4
> O=C(Nc1cccc(F)c1)c1ccc(-c2ccccc2Cl)o1
→ 60	3	75*	nt	-7	-15
